# Measured values: ChEMBL document CHEMBL4118117, “Synthesis, biological evaluation, and molecular docking investigation of benzhydrol- and indole-based dual PPAR-γ/FFAR1 agonists” (Bioorg Med Chem Lett, 2018)
# Amino acid sequences for entries named in this document (tags omitted). A change or cut given only in a name is not applied to a line headed by its entry.
# UniProt P37231: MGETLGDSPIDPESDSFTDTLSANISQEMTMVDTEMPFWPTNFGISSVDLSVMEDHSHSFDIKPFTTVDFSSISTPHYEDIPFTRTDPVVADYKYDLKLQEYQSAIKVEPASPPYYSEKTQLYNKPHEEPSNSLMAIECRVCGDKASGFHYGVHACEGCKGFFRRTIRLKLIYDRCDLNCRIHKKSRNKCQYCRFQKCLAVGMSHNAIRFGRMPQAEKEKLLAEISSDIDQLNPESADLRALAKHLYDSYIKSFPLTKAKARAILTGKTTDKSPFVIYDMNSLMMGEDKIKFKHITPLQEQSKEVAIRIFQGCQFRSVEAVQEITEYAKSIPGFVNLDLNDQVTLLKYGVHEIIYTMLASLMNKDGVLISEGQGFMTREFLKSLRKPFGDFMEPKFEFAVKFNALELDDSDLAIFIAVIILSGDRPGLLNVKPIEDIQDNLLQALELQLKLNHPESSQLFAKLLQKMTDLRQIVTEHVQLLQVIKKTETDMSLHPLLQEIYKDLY
# Target: Peroxisome proliferator-activated receptor gamma (Homo sapiens, UniProt P37231)
# Assay: Transactivation of recombinant human N-terminal GAL4-DBD fused PPARgamma LBD expressed in reporter cells at 30 uM measured after 24 hrs by luciferase reporter gene assay relative to control
# Type: cell-based
row,SMILES,fold change (FC)
1,O=C1NC(=O)C(Cc2ccc(OCCn3c(CO)nc4ccccc43)cc2)S1 (configuration not stated),17.1
2,Cc1ccccc1C(OCCOc1ccc(CC2SC(=O)NC2=O)cc1)c1ccccc1 (configuration not stated),1.9
3,O=C1NC(=O)C(Cc2ccc(OCCOC(c3ccccc3)c3ccc(Cl)cc3)cc2)S1 (configuration not stated),4.6
4,O=C1NC(=O)C(Cc2ccc(OCCOc3cccc4ccccc34)cc2)S1 (configuration not stated),5.7
5,O=C1NC(=O)C(Cc2ccc(OCCn3ccc4ccc(Cl)cc43)cc2)S1 (configuration not stated),36.2
6,O=C1NC(=O)C(Cc2ccc(OCCn3c(-c4ccccc4)cc4ccccc43)cc2)S1 (configuration not stated),15.1
7,COc1ccc(C(OCCOc2ccc(CC3SC(=O)NC3=O)cc2)c2ccccc2)cc1 (configuration not stated),5.2
